System: MamK-GFP fusion
Assay: MamK-GFP expression imaging in M. magneticum
Settings: for MamK-GFP expression in the absence of the inducer: no theophylline

B1: Riboswitch B: synthetic theophylline-responsive riboswitch, mRNA sequence SEQ ID NO: 12 (nucleic acid)
chain: GGUACCGGUGAUACCAGCAUCGUCUUGAUGCCCUUGGCAGCACCCGCUGCGCAGGGGGUAUCAACAAGAUG
modifications: chemistry not fully specified
B1 was tested, and the “MamK-GFP expression in the absence of the inducer” value (“MamK-GFP expression in the absence” for short) was “no visible expression of MamK-GFP”, the “levels of MamK-GFP at comparable times post induction” value (theophylline 1 mM) was “higher levels of MamK-GFP than riboswitch C” and the “suitability of MamK-GFP levels for magnetosome localization studies” value (theophylline 1 mM) was “levels of MamK-GFP suitable for magnetosome localization studies”.

B2: Riboswitch A: synthetic theophylline-responsive riboswitch, mRNA sequence SEQ ID NO: 11 (nucleic acid)
chain: GGUACCGGUGAUACCAGCAUCGUCUUGAUGCCCUUGGCAGCACCCUGAGAAGGGGCAACAAGAUG
modifications: chemistry not fully specified
For B2, the “MamK-GFP expression in the absence” value was “detectable levels of MamK-GFP expression”.

B3: Riboswitch C: synthetic theophylline-responsive riboswitch, mRNA sequence SEQ ID NO: 13 (nucleic acid)
chain: GGUACCUGAUAAGAUAGGGGUGAUACCAGCAUCGUCUUGAUGCCCUUGGCAGCACCAAGGGACAACAAGAUG
modifications: chemistry not fully specified
For B3, the “MamK-GFP expression in the absence” value was “no visible expression of MamK-GFP” and the “suitability of MamK-GFP levels for magnetosome localization studies” value (theophylline 1 mM) was “levels of MamK-GFP suitable for magnetosome localization studies”.

B4: Riboswitch D: synthetic theophylline-responsive riboswitch, mRNA sequence SEQ ID NO: 14 (nucleic acid)
chain: GGUACCGGUGAUACCAGCAUCGUCUUGAUGCCCUUGGCAGCACCCUGCUAAGGUAACAACAAGAUG
modifications: chemistry not fully specified
For B4, the “MamK-GFP expression in the absence” value was “detectable levels of MamK-GFP expression”.

Reference: patent US20120244601A1, “[…] INDUCIBLE GENE […]” (priority 2011, published 2012)
